Assay results published in PubChem BioAssay (Tox21).
Several values for one entry are separate records, joined by “and”; a condition that tells them apart may be missing. Equal values may be shown once. Most of the hits are listed elsewhere, so they are rarer here than in the full data. Results filed as inconclusive are left out. Activity calls are given as the source filed them. Calls follow the shape of the dose curve; as a rule, active = well fitted activation curve with a large enough effect in the repeat runs; inconclusive = weak or mixed curves; inactive = no such curve, though single readings can be large or run the other way.

Amino acid sequences for entries named in this document (tags omitted). A change or cut given only in a name is not applied to a line headed by its entry.
UniProt O75469: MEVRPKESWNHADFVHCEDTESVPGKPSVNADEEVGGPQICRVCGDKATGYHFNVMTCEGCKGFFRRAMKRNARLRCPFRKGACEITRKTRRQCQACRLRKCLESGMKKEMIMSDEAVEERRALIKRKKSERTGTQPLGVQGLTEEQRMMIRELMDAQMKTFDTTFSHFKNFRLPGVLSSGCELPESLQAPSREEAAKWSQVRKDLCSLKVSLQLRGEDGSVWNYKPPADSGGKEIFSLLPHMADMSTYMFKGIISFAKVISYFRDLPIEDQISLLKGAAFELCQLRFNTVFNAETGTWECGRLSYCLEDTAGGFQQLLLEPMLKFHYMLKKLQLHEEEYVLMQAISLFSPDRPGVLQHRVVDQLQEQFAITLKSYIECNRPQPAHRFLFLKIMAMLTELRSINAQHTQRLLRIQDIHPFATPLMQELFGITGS

The compounds below were run against Nuclear receptor subfamily 1 group I member 2 (Homo sapiens) (UniProt O75469) (assay: Human pregnane X receptor (PXR) small molecule agonists, qHTS assay (AID 1346982; also: nearly all actives have a fitted effect of over 35% in size)). Details: PXR-Luc HepG2, CYP3A4 luciferase reporter, 24 h; series mostly up to 42.5 µM; activation: at the top concentration.
Procedure, shortened: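 PXR-Luc HepG2 cells (CYP3A4 promoter-driven luciferase) were seeded in medium with 5% charcoal-stripped FBS, left 5 hr at 37 C, then exposed to compounds in DMSO for 24 hr. Luminescence was read after ONE-Glo addition.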
% is scaled to controls: 0 for no effect and ±100 for the full control effect; potency is read from the fitted curve at half-maximal effect.

SMILES	activation	Potency
CC(N)CCCC(C)(C)O (stereo unspecified)	inactive: 0.0649%	–
CC(C)NCC(O)COc1ccc(CCOCC2CC2)cc1 (stereo unspecified)	inactive: 5.8%	–
NC(=O)NC1NC(=O)NC1=O (stereo unspecified)	–	inactive
CC1=CC(=O)NS(=O)(=O)O1	–	inactive
CNCC[C@H](Oc1cccc2ccccc12)c1cccs1	inactive: -60%	–
NS(=O)(=O)Cc1noc2ccccc12	inactive: -5.34%	–
NC1=NCC2c3ccccc3Cc3ccccc3N12 (stereo unspecified)	inactive: -11.8%	–
Cc1ncc[nH]1	inactive: 2.26% [at 92.4 µM]	–
O=C=Nc1ccc(Cc2ccc(N=C=O)cc2)cc1	inactive: -0.369%	–
CCO[C@@H]1O[C@H](C(COCc2ccccc2)OCc2ccccc2)[C@H](OCc2ccccc2)[C@H]1O (stereo partly specified)	–	active: 5.96 µM
CCn1cc(C(=O)O)c(=O)c2cnc(N3CCCC3)nc21	inactive: -11.8% [at 8.39 µM]	–
Cc1cc(CC(=O)O)n(C)c1C(=O)c1ccc(Cl)cc1	inactive: -1.72%	–
NCCNCCNCCN	–	inactive
O=C(O)CN(CCN(CC(=O)O)CC(=O)O)CC(=O)O	inactive: 4.59% [at 3.27 µM]	–
CCCN(CCC)S(=O)(=O)c1ccc(C(=O)O)cc1	–	inactive
CN(C)CCC(c1ccccc1)c1ccccn1 (stereo unspecified)	–	inactive
Nc1nnc(-c2cccc(Cl)c2Cl)c(N)n1	inactive: 4.19%	–
CC(=O)OCC1=C(C(=O)O)N2C(=O)[C@@H](NC(=O)CSc3ccncc3)[C@H]2SC1	inactive: -3.84%	–
ClC(Cl)Cl	inactive: 9.26% [at 92.4 µM]	–
O=C(NCCO[N+](=O)[O-])c1cccnc1	inactive: -6.1%	–
Cc1c(O)cccc1C(=O)N[C@@H](CSc1ccccc1)[C@H](O)CN1C[C@H]2CCCC[C@H]2C[C@H]1C(=O)NC(C)(C)C	–	active: 23.7 µM and active: 33.5 µM
